Measurements taken from patent publication EP0329295A1, “Renin inhibiting peptides with polar end groups” (THE UPJOHN COMPANY, priority 1988, dated 1989).

Amino acid sequences for entries named in this document (tags omitted). Residues count along the entry.
UniProt P00797, 67-406 limits assumed: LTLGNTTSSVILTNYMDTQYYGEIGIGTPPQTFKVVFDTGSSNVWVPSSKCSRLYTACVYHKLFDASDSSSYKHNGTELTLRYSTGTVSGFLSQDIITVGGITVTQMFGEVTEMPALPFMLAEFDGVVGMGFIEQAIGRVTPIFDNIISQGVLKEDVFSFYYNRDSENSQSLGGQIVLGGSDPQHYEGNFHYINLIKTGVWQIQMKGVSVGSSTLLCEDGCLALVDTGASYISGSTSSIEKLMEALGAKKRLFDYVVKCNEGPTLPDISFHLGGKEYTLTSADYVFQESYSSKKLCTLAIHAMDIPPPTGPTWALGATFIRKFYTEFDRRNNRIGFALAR

Biological target: renin (Homo sapiens, UniProt P00797)
Test: renin inhibitory activity (IC50), determined as described in EP 0173481, pages 103-105
Conditions: renin inhibition; values given in molar units
Source text: The determination of renin inhibitory activity of the compounds of the present invention (ICso's) are well known to one of ordinary skill in the art, as, for example, described in published European application 0173481, published 5 March 1986, pages 103-105.

`CC(=O)OC[C@H]1O[C@@H](N=[N+]=[N-])[C@@H](OC(C)=O)[C@@H](OC(C)=O)[C@@H]1OC(C)=O` gave an IC50 of 36 nM.
